{
  "sequences": {"note": "The chains behind the UniProt entries cited, without tags or fusion partners. Where a name states a change or a piece, a line headed by the entry shows the natural chain unless it says otherwise.", "UniProt P56373": "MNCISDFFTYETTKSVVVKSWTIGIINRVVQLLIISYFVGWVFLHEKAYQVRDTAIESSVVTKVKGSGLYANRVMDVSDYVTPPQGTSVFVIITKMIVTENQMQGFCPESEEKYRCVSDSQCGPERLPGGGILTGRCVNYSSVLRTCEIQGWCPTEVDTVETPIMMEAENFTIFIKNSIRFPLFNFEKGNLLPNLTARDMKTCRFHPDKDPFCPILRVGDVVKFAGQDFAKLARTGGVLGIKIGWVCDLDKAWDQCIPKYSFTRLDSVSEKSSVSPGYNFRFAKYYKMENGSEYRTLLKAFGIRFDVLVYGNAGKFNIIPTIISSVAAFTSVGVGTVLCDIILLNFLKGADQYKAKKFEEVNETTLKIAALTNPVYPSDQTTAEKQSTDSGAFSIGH"},
  "source": "patent US10183937B2",
  "about": "“1,3-thiazol-2-yl substituted benzamides” (BAYER AKTIENGESELLSCHAFT, priority 2014, dated 2019)",
  "target": "human P2X3 receptor (Homo sapiens (Human), UniProt P56373)",
  "data": [
    {"compound": "Cc1cnc(-c2cc(OC3CCN(C)C(C(F)(F)F)C3)cc(C(=O)N[C@H](C)c3cnc(C(F)(F)F)nc3)c2)s1", "note": "(single isomer, unassigned) [Example 223]", "values": [
      {"measurement": "IC50", "value": 3, "unit": "nM"}
    ]}
  ]
}
